# Experiments:
# [1] = Solubility of CGP in water; format: physicochemical
# [2] = test system: histamine, leukotriene C4/D4/E4, prostaglandin D2 and E2 in nasal lavage fluid; assay: Mediators (histamine, leukotrienes, prostaglandins) in nasal lavage fluid after intranasal ragweed challenge; format: in vivo, Beagle dogs; conditions: vs vehicle; n=5
# Method: Ragweed sensitized beagle dogs (n=5) with preexisiting nasal and airway allergic responses were utilized in the animal study described in this Example. Dogs served as their own control and initially were treated with vehicle (sterile water) and then rested for 5 weeks prior to receiving the test compound. The target dose of calcium glycerophosphate was about 30 mg/dog twice daily. The maximum concentration of the compound used for inhalation and nasal instillation was 20 mg/ml due to solubility issues. Based on the aerosol testing only 1.6 mg/dog could be delivered by inhalation during a 15 minute exposure (20 mg/ml solution). In addition, each dog received twice daily an intranasal instillation of 30 mg (2×375 μl of 20 mg/ml in each nostril) given within 30 minutes after the end of the inhalation exposures.
# (§1) FIG. 1 summarizes the study design for characterizing the effects of CGP on rhinitis symptoms in ragweed sensitized Beagle dogs. The baseline nasal cavity volume was first measured 3 days (day −3) before each of the vehicle and CGP treatments. […]
# Total nasal cells were determined using an automatic cell counter. […] At least four hundred inflammatory cells (or less if applicable) were counted and the percentage of specific cell types determined for each animal (slides in duplicates, 200 cells per slide). […]
# [3] = test system: ragweed sensitized Beagle dogs; assay: Ragweed-induced nasal congestion, nasal cavity volume by acoustic rhinometry; format: in vivo; conditions: BID inhalation (1.6 mg deposition) + intranasal 30 mg from three days before challenge, vs vehicle, n=5, Two Way Anova p<0.0001
# Source text: Beagle dogs immunized with ragweed (RW) as puppies develop allergic immune responses. These allergic dogs show elevated total and specific serum IgE and increased numbers of eosinophils in their blood and lungs, as well as an increase in airway resistance and a decrease in dynamic compliance after a challenge with RW by inhalation or local instillation in defined lung lobes. Additionally, these dogs develop increased nasal congestion and inflammation following RW challenge in the nose.
# Ragweed sensitized beagle dogs (n=5) with preexisiting nasal and airway allergic responses were utilized in the animal study described in this Example. Dogs served as their own control and initially were treated with vehicle (sterile water) and then rested for 5 weeks prior to receiving the test compound. The target dose of calcium glycerophosphate was about 30 mg/dog twice daily. The maximum concentration of the compound used for inhalation and nasal instillation was 20 mg/ml due to solubility issues. […]
# as §1
# Treatment occurred on Days 0 to 5 (only AM on Day 5). […] The pH of the compound (as administered for nasal inhalation) was recorded prior to administration. […]
substance,measurement,setting,value
calcium glycerophosphate,solubility in water,[1],about 1 % by weight
same,maximum concentration used for inhalation and nasal instillation due to solubility issues,[1]; in sterile water,20 mg/mL
same,AUC of leukotriene C4/D4/E4 levels between 0 and 60 min,[2],leukotriene levels decreased in three dogs and increased in two dogs and no statistical significance was reached
same,nasal cavity volume relative to baseline / nasal congestion after intranasal ragweed challenge,[3],significantly increased nasal cavity volume and therefore attenuated nasal congestion compared to vehicle treatment
same,nasal cavity volume relative to baseline / nasal congestion after intranasal ragweed challenge,[3]; listed as CGP,nasal congestion was significantly attenuated compared to vehicle treatment

# — patent US9861647B2, “Calcium glycerophosphate for treating and preventing respiratory diseases or conditions” (Prelief Inc., priority 2007, dated 2018)
